# Measured values: patent publication US20230271983A1, “FUNCTIONALIZED ISONITRILES AND PRODUCTS, PREPARATION AND USES THEREOF” (UNIVERSIDADE DE SANTIAGO DE COMPOSTELA, priority 2020, published 2023)
# By UniProt entry, the sequences of proteins in these tests, tags left out.
# UniProt P29275, whole entry: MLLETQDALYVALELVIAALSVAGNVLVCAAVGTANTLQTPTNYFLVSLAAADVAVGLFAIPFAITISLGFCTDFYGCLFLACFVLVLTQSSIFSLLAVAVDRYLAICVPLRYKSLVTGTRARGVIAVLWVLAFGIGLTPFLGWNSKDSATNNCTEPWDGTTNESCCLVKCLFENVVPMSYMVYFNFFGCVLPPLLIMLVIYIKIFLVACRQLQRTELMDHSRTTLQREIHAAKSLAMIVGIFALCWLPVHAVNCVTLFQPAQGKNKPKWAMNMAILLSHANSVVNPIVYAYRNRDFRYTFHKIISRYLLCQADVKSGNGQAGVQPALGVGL
# UniProt P0DMS8, whole entry: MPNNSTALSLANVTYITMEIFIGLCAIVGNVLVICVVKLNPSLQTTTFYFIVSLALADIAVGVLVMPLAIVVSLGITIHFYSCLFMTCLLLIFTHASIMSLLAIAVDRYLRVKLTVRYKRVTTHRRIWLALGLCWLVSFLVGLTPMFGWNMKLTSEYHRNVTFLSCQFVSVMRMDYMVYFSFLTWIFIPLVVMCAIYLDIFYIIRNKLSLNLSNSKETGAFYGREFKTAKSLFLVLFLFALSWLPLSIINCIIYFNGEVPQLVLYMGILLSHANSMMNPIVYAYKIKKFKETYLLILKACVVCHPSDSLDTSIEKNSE
# UniProt P30542, whole entry: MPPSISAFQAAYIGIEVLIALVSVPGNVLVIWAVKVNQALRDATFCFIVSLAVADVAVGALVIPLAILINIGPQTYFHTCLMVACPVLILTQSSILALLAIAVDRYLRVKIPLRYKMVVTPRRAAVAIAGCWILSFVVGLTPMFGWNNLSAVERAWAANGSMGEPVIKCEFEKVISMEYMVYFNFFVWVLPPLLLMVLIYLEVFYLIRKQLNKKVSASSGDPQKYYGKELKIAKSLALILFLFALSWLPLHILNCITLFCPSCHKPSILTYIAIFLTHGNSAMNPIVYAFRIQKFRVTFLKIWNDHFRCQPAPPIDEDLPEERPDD
# Assays:
# human A2BAR = human A2BAR (Homo sapiens, UniProt P29275); assay: A2BAR radioligand competition binding, [3H]DPCPX, HEK-293 cell membranes; conditions: read-out: A2B Ki; 25 nM [3H]DPCPX, 25° C. 30 min
# Text: (§1) was evaluate in vitro using radioligand binding assays following a previously described protocol (J. Med. Chem. 2019, 62, 9315-9330). Human ARs were expressed in transfected cell lines [e.g. chinese hamster ovary (CHO) cells (A1AR), human epithelial carcinoma (HeLa) cells (A2AAR and A3AR) and human embryonic kidney (HEK-293) cells (A2BAR)]. [^3H]DPCPX for A1AR and A2BAR, [^3H]NECA for A3AR, and [^3H]ZM241385 for A2AAR were employed as radioligands. […] Using Prism 5.0 software (GraphPad, San Diego, Calif.) K; values were acquired by fitting the data by non-linear regression. Results are the average of three experiments, each of them performed in duplicate. […] Non-specific binding was determined in the presence of 10 μM R-PIA. […] Non-specific binding was determined in the presence of 50 μM NECA. […] Non-specific binding was determined in the presence of 400 μM NECA. […] Non-specific binding was determined in the presence of 100 μM R-PIA. […] After the incubation time, membranes were washed and filtered, radioactivity was detected in a Microbeta Trilux reader (PerkinElmer).
# (§2) The adenosinergic (affinity and selectivity) profile of several compounds of the invention was evaluated according to the above examples.
# human A3AR = human A3AR (Homo sapiens, UniProt P0DMS8); assay: A3AR radioligand competition binding, [3H]NECA, HeLa cell membranes; conditions: at 1 μM
# Text: as §1, §2
# human A1AR = human A1AR (Homo sapiens, UniProt P30542); assay: A1AR radioligand competition binding, [3H]DPCPX, CHO cell membranes; conditions: at 1 μM
# Text: as §1, §2
# human A2AAR = human A2AAR (Homo sapiens, UniProt P29274); assay: A2AAR radioligand competition binding, [3H]ZM241385, HeLa cell membranes; conditions: at 1 μM
# Text: as §1, §2
smiles,measurement,setting,value
[C-]#[N+]CCCOCCOCCOCCCNC(=O)C(C)(C)N1CCN(C(=O)CNC(=O)COc2ccc(-c3cc4c([nH]3)c(=O)n(CCC)c(=O)n4C)cc2)CC1,Ki,human A2BAR,180 nM
same,A3 specific binding inhibition percentage,human A3AR,57%
same,A1 specific binding inhibition percentage,human A1AR,61%
same,A2A specific binding inhibition percentage,human A2AAR,13%
